Earlier results in patent US5424185A, “Human high-affinity neurotransmitter uptake system” (Baylor College of Medicine, priority 1990, dated 1995).

Tested on: Human Platelets
Details: literature values; read-out: Representative IC50, Human Platelets; cited from earlier work

In the case of `CNCCC=C1c2ccccc2CCc2ccccc21` [Nortriptyline, nortriptyline], the IC50 is listed as 2000 nM.
